# Values quoted from earlier work as cited in US20240165099A1, “METHODS FOR THE TREATMENT AND PREVENTION OF DISEASES OR INFECTIONS WITH MCP-1 INVOLVEMENT BY ADMINISTRATION OF TAFENOQUINE” (60 DEGREES PHARMACEUTICALS LLC, priority 2022, published 2024).
# Tested on: blood stages of P. falciparum
# Settings: Baird et al. 2002; McCarthy et al. 2019; cited from earlier work
compound,measurement,value
COc1cc(NC(C)CCCN)c2ncccc2c1 (stereo not shown) [Primaquine],activity against the blood stages of P. falciparum,only week activity
